Assay results from patent US20170166655A1 (published 2017).

What was measured:
Assay in all cases: SPR
[1] = target: T1, human R131 FcγRIIa, extracellular region (human, UniProt P12318 34-217)
T1 chain: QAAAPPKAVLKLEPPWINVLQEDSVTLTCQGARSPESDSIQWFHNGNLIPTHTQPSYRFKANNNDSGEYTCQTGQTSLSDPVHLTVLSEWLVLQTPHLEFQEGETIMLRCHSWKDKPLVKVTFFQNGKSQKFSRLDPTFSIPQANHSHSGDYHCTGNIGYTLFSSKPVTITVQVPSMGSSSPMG

[2] = target: T2, human FcγRI, extracellular region (human, UniProt P12314 16-292)
T2 chain: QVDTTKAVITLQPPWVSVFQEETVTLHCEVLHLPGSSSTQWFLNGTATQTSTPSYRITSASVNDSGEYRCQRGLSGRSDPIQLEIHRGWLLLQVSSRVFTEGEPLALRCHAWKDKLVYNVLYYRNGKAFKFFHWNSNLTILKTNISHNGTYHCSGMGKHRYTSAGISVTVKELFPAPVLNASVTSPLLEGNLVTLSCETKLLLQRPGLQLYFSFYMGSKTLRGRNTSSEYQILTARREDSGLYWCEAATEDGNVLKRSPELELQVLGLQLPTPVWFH

[3] = target: T3, human FcγRIIb, extracellular region (human, UniProt P31994 43-217)
T3 chain: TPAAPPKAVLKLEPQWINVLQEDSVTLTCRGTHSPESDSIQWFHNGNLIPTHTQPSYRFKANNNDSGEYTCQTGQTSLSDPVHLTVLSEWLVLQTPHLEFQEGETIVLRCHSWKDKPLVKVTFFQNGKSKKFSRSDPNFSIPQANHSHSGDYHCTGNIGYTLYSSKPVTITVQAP

Kd [1]: 4070 nM
Kd [2]: 8.32 nM
Kd [3]: 2000 nM
B1: WT IgG4 (antibody)
chain: ASTKGPSVFPLAPCSRSTSESTAALGCLVKDYFPEPVTVSWNSGALTSGVHTFPAVLQSSGLYSLSSVVTVPSSSLGTKTYTCNVDHKPSNTKVDKRVESKYGPPCPSCPAPEFLGGPSVFLFPPKPKDTLMISRTPEVTCVVVDVSQEDPEVQFNWYVDGVEVHNAKTKPREEQFNSTYRVVSVLTVLHQDWLNGKEYKCKVSNKGLPSSIEKTISKAKGQPREPQVYTLPPSQEEMTKNQVSLTCLVKGFYPSDIAVEWESNGQPENNYKTTPPVLDSDGSFFLYSRLTVDKSRWQEGNVFSCSVMHEALHNHYTQKSLSLSLGK
